{"source": "paper PMC10485003", "about": "“Antibiotic hyper-resistance in a class I aminoacyl-tRNA synthetase with altered active site signature motif” (Nature Communications, 2023)", "target": "T1, wt-HVGH TtIleRS2 (Thermus thermophilus, UniProt P56690)", "T1 construct": "hexa-histidine tag (pET28b(+)) (N); made in house; host or cells: E. coli Rosetta2 (DE3)", "T1 sequence (P56690 1-1043)": "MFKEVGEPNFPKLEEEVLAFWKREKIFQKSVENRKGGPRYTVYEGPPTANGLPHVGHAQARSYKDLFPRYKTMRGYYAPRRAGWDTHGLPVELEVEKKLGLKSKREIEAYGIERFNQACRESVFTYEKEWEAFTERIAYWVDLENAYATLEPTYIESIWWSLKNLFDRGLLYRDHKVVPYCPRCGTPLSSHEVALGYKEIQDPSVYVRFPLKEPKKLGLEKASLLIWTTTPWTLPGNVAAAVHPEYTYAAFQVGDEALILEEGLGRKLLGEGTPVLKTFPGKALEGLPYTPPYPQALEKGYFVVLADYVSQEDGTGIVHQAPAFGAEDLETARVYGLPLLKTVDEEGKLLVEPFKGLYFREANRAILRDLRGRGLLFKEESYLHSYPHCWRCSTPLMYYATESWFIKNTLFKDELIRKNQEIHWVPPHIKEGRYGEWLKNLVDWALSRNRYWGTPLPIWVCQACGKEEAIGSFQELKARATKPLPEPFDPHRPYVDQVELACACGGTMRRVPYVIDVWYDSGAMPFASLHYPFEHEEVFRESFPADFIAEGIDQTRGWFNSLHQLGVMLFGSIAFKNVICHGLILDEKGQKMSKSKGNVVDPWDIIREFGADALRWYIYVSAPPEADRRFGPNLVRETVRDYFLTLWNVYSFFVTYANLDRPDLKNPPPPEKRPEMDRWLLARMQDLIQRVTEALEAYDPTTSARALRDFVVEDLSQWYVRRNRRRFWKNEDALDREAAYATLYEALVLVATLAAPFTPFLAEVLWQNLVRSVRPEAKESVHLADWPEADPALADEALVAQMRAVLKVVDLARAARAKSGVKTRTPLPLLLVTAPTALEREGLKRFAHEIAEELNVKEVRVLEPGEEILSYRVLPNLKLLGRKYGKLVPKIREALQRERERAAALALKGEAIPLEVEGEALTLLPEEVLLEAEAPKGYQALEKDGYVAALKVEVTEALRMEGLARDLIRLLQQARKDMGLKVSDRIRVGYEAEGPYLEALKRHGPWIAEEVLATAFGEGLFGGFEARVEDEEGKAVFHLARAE", "experiment": "ATP-PPi exchange assay, mupirocin inhibition of amino acid activation", "format": "biochemical", "settings": "c(mupirocin) 5.0 μM; c(ATP) 15.0 mM", "procedure": "L-Ile and ATP concentrations ranged from 1/10 KM to 10 KM values. When measuring the KI towards one of the substrates, the other was held in saturation (concentrations at least 10 KM). The aliquots of the reaction mixture (1–2.5 μl) were quenched in 2 volumes of 500 mM NaOAc pH = 4.5, 0.1% SDS, and formed ^32P-ATP was separated from the remaining ^32P-PPi by thin-layer chromatography on Polygram CEL 300 PEI UV254 TLC plates (Macherey-Nagel, cat: 801063) using 750 mM KH2PO4 pH=3.5, 4 M urea buffer. Visualization and quantification of the signals was performed using a Typhoon Phosphoimager 5 (General Electric) and accompanying ImageQuant™ TL software (SV: 10.2). The kinetic constants were determined using a global fit option of the competitive inhibition model of GraphPad Prism 6 software (SV: 6.01). All experiments were performed in triplicates. The kcat was determined by dividing the maximal velocity, VM, with the used enzyme concentration. […]\nvariable substrate (ATP or Ile) was varied in the range of 0.1 KM to 10 KM. The other substrate (Ile or ATP) was kept in excess at 5 to 10 KM. Data were globally fitted to the competitive inhibition model using GraphPad prism 6.01 for Windows software. The values represent the average value ± SD of three independent experiments. Source data are provided as a Source Data file.", "data": [{"smiles": "C/C(=C\\C(=O)OCCCCCCCCC(=O)O)C[C@@H]1OC[C@H](C[C@@H]2O[C@H]2[C@@H](C)[C@H](C)O)[C@@H](O)[C@H]1O", "note": "[mupirocin]", "values": [{"measurement": "initial velocity vo", "value": 0.01745, "unit": "mM/min"}]}]}
